The values below come from article PMC3114813 (Environmental Health Perspectives, 2011).

Chains of the proteins cited; added tags and fusions are not shown.
UniProt P10275, whole entry Q868H: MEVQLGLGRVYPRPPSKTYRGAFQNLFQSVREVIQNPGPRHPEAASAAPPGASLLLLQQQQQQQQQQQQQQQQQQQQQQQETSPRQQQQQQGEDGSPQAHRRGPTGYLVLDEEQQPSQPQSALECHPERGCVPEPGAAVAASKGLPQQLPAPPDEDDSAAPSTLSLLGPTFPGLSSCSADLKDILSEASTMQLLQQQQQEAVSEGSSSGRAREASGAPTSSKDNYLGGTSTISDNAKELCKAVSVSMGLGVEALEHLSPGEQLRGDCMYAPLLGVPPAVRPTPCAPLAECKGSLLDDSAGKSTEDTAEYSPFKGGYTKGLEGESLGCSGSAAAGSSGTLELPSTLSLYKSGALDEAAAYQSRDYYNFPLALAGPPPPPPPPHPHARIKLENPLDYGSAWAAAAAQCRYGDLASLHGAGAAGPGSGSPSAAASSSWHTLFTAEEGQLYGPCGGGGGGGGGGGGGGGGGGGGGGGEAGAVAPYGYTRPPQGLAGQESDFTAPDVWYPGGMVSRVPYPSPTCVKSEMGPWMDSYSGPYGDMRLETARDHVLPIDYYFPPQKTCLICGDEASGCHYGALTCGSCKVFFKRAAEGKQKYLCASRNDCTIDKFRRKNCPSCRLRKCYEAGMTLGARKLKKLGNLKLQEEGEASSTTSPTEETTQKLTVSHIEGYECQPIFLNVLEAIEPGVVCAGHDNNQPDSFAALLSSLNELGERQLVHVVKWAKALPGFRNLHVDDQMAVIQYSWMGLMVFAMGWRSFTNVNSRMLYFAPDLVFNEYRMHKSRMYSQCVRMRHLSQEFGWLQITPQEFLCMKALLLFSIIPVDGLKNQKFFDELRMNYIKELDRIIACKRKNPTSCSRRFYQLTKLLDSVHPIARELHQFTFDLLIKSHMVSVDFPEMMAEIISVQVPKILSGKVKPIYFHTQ

The target in experiment [1] is T1, androgen receptor (AR) (Homo sapiens, UniProt P10275).
T1 construct: expressed in transfected cells; host or cells: yeast (YAS strain)
The format is cell-based. To be noted: read-out: Antiandrogen IC20 (μM) YAS. The method, then:
Briefly, stimulation of the transfected AR causes a color change in the media, which is measured by absorbance at 540 nm (Labsystems Multiskan Multisoft, Vienna, VA, USA). Plates were also measured at 620 nm to measure cell growth (turbidity) to check for any cytotoxic effects that may have occurred. […] Incubation time was 53 hr at 28°C. […] Pesticide serial dilutions were tested in duplicate over two plates and were tested in two separate experiments.
Specifically, a variety of nonlinear regression models were fitted independently to the same data set, and the best-fitting model was selected using a statistical goodness-of-fit criterion. […] Data considered to be statistically significant at p < 0.05 were analyzed using the best-fit approach as described above. All statistical analysis was performed using SAS statistical software (SAS Institute Inc., Cary, NC, USA). From the best-fitting model, we derived inhibitory concentrations for antiandrogenicity and effect concentrations for cytotoxicity.

For experiment [2], the target named is T2, androgen receptor (AR) (Homo sapiens, UniProt P10275, Q868H).
T2 construct: MDA-kb2 cells are human breast cancer cells stably transfected with a firefly luciferase reporter gene; endogenous in cells; host or cells: MDA-kb2 (human breast cancer cells)
In kind it is cell-based. As for the experimental part: MDA-kb2 cells are human breast cancer cells stably transfected with a firefly luciferase reporter gene that is driven by an androgen-response element–containing promoter ([Wilson et al. 2002]). Details of the modified assay were published previously ([Ermler et al. 2010]). Briefly, cells were seeded at a concentration of 1 × 10^5 cells/mL in phenol red–free Leibowitz-15 medium (Invitrogen Ltd., Paisley, UK) containing 10% (charcoal-stripped) fetal calf serum (Invitrogen Ltd.) in white luminometer plates and allowed to attach for 24 hr. Cells were then exposed to eight serial dilutions of selected pesticides with or without DHT (0.25 nM). After 24 hr, luciferase activity was determined with SteadyGlo assay reagent (Promega UK Ltd., Southampton, Hampshire, UK) and measured in a plate reader (FLUOstar Optima, BMG Labtech GmbH, Offenburg, Germany). […] All concentrations were tested in duplicate over two plates, and each pesticide was measured at least twice in separate experiments. For comparative purposes, luminescence was normalized to DHT alone at coexposure concentration (maximum response, 100%) and solvent-only (ethanol) controls (minimum response, 0%). […]
To analyze antiandrogenic action, raw luminescence readings were normalized on a plate-by-plate basis to the means of the positive DHT controls (n = 8) and the solvent controls (n = 8) ([Ermler et al. 2010]). […]

As to `COP(=S)(OC)SCn1nnc2ccccc2c1=O` [Azinphos-methyl], the IC20 (as a rule, the concentration needed for an effect of 20%) on androgen receptor (AR) [1] came out at 2.25 µM; at androgen receptor (AR) [2] (read-out: Antiandrogen IC20 (μM) MDA-kb2), 5.38 µM. Also, the “ERR (environmental relevance ratio)” value on androgen receptor (AR) [2] (total exposure score / IC20 (MDA-kb2), recalculated using experimental data) is on record as 2.9.
